Test results taken from ChEMBL document CHEMBL1133734, “Synthesis and evaluation of nitroheterocyclic phosphoramidates as hypoxia-selective alkylating agents” (2000).

What was measured:
MCF7 = experiment: Tested in vitro for cytotoxicity against MCF-7/WT wild-type human breast cancer cells
HT-29 [1] = experiment: Tested in vitro for cytotoxicity against HT-29 human colon carcinoma cells under hypoxic condition
B16 = experiment: Tested in vitro for cytotoxicity against B16 murine melanoma cells; format: functional, Mus musculus
In short: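 Clonogenic assay. Cells were suspended in unsupplemented medium at 2-30 000 cells/mL and exposed 2 h at 37 °C, 5% CO2 to 1-400 µM drug (final), with the top dose chosen to give >99% kill. Drug stocks were made in medium or ethanol. After washing, cells were plated at 2-3 dilutions. Colonies of ≥50 cells were stained with crystal violet at 8 days (B16) or 14 days (MCF-7). LC99 was taken by linear regression of log surviving fraction vs concentration.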

HT-29 [2] = experiment: Tested in vitro for cytotoxicity against HT-29 human colon carcinoma cells under aerobic condition
MCF7-CP = experiment: Tested in vitro for cytotoxicity against MCF-7/CP 4-hydroperoxycyclophosphamide-resistant human breast cancer cells

Structure (SMILES): NP(=O)(OCc1ccc([N+](=O)[O-])s1)N(CCBr)CCBr (stereo not given)
- LC99 (MCF7): 6.1 µM
- LC99 (HT-29 [1]): 0.18 µM
- LC99 (B16): 1.8 µM
- LC99 (HT-29 [2]): 1.4 µM
- LC99 (MCF7-CP): 4.1 µM

Structure (SMILES): NP(=O)(OCc1ccc([N+](=O)[O-])o1)N(CCBr)CCBr (stereo not given)
- LC99 (MCF7): 4.5 µM
- LC99 (HT-29 [1]): 0.22 µM
- LC99 (B16): 2 µM
- LC99 (HT-29 [2]): 1.8 µM
- LC99 (MCF7-CP): 2.9 µM
